Reference: patent publication US20110319384A1, “Pharmaceutical Compositions” (priority 2005, published 2011)

Tested on: patients suffering from psychotic depression
[1] = all 24 patients between 5 and 7 at start

## OCCOCCN1CCN(C2=Nc3ccccc3Sc3ccccc32)CC1 [quetiapine, 11-[4-[2-(2-hydroxyethoxy)ethyl]-1-piperazinyl]-dibenzo[b,f][1,4]thiazepine]
add-on to citalopram
  mean BPRS score at Week 6: about 31
  mean BPRS score at baseline: about 59
  mean HAM-D21 score after 6 weeks: about 10
  mean HAM-D21 score at baseline: about 31
  mean decrease in BPRS score from baseline to Week 6: about 28
After 6 weeks, quetiapine 50-750 mg/day add-on to citalopram 20-60 mg/day
  mean decrease from baseline in HAM-D21 scores: about 21
[1]
  patients rated CGI severity 5 at study end: 4 patients
  patients rated CGI severity 6 at study end: 1 patient
In vivo
  mean weight gain: < 1 kg
  number of mild AEs: Twenty-five
  number of moderate AEs: 9 AEs
  patients who experienced at least 1 AE: 12 patients
  serious adverse events (SAEs): no serious adverse events
Most values
  abnormal initial values for serum prolactin, EPS, or UKU side effects: normalized by the end of the study
